Data as given in patent US5229412A, “Method for relieving anxiety using 5-hydroxytryptamine-1A-receptor-binding compounds” (The Board of Trustees of the Leland Stanford Junior …, priority 1988, dated 1993).

Chains of the proteins cited; added tags and fusions are not shown.
UniProt P14842, whole entry: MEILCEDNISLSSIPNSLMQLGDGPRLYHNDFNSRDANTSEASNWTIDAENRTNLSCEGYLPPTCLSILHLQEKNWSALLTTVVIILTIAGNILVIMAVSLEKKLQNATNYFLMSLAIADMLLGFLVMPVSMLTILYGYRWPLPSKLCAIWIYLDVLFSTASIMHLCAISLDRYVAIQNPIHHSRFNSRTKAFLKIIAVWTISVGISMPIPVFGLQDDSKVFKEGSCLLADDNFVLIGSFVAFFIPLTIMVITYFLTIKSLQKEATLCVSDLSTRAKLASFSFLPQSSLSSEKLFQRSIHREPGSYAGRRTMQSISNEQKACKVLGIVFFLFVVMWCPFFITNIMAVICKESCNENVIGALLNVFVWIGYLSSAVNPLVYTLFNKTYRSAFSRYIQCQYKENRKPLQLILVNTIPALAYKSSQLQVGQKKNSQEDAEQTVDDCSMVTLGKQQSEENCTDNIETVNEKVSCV

Experiments:
β-adrenergic receptors = assay: Radioligand binding, β-adrenergic receptors labeled by ^3 H-dihydroalprenolol (^3 H-DHA), rat cortex
Experimental: (§1) Radioligand binding studies were performed described in Peroutka et al., Molecular Pharmacology (1979) 16:687-699. Briefly, rat brain were purchased from Pel-Freez (Roger, AR). On the day of study, the samples were thawed in Tris-HCl buffer. Tissues were homogenized in 20 volumes Tris-HCl buffer (pH 7.7 at 25° C.) using a Brinkmann Polytron and then centrifuged in an IEC B20A centrifuge at 49,000×g for 10 min. The supernatant was discarded, and the pellet was resuspended in the same volume of Tris-HCl buffer and incubated at 37° C. for 10 min prior to a second centrifugation at 49,000×g for 10 min. The final pellet was resuspended in 80 volumes of Tris-HCl buffer containing 10 μM pargyline, 4 mM calcium chloride and 0.1% ascorbic acid. The suspensions were immediately used in the binding assay. […] Following incubation at 25° C. for 30 minutes, the assays were rapidly filtered under vacuum through #32 glass filters (Schleicher and Scheull: Keene, NH) with two 5 ml washes using 50 mM Tris-HCl buffer. Radioactivity was measured by liquid scintillation spectroscopy in […] of 3a70 Counting Cocktail (Research Products International: Mt. Prospect, IL) at 54% efficiency. […] All drugs were diluted and dissolved in assay buffer.
(§2) Each experiment was performed in triplicate and repeated 3 to 6 times.

5-HT2 = target: T1, 5-HT2 (Rattus norvegicus, UniProt P14842); assay: Radioligand binding, 5-HT2 sites labeled by ^3 H-spiperone, rat cortex; settings: used for Ki calculation
T1 construct: rat brain were purchased from Pel-Freez; tissue Pel-Freez (Roger, AR); host or cells: rat brain (cortex) membranes
Experimental: as §1, §2

Structure (SMILES) | selectivity for β-adrenergic receptors (in words) (β-adrenergic receptors) | Kd (5-HT2)
CC(C)(NC(=O)CBr)[C@H]1CC[C@@](C)(NCC(O)COc2cccc3[nH]ccc23)CC1 (stereo partly drawn) [Compound 8, N^8-(Bromoacetyl)-N^1-[3-(4-indolyloxy)-2-hydroxypropyl]-(Z)-1,8-diamino-p-menthane] | most selective for β-adrenergic receptors | –
CC(C)(NCC(O)COc1cccc2[nH]c(C#N)cc12)[C@H]1CC[C@@](C)(NC(=O)CBr)CC1 (stereo partly drawn) [Compound 11] | most selective for β-adrenergic receptors | –
O=C(CCCN1CCC2(CC1)C(=O)NCN2c1ccccc1)c1ccc(F)cc1 [^3 H-spiperone, reference compound] | – | 710 pM
